The record followed here is US20070014810A1, “Inducing cellular immune responses to human papillomavirus using peptide and nucleic acid compositions” (priority 2003, published 2007).

pIC50: −log10 of the molar value.

The term pIC50 denotes −log10 of the IC50, conventionally taken in molar units.

Experiment [1] relates to A2/K^b mice, transgenic for the human HLA A2.1 allele. As to the kind of experiment: Immunogenicity in HLA transgenic mice, in situ IFN-γ ELISA (secretory units). Particulars: HLA-A2 supertype peptide, Table 29 first entry. It counts as in vivo. On the procedure:
Seven days after priming, splenocytes obtained from these animals are re-stimulated with syngenic irradiated LPS-activated lymphoblasts coated with peptide.
In vitro CTL activation: One week after priming, spleen cells (30×10^6 cells/flask) are co-cultured at 37° C. with syngeneic, irradiated (3000 rads), peptide coated lymphoblasts (10×10^6 cells/flask) in 10 ml of culture medium/T25 flask. After six days, effector cells are harvested and assayed for cytotoxic activity. […]
On the day of the assay, the plates are washed and blocked for 2 hours with 10% FBS in PBS. […] The following day, the cells are removed by washing the plates with PBS and Tween 20 and the amount of IFN-γ that was secreted and captured by the bound Clone RA-6A2 monoclonal antibody is measured using a sandwich format ELISA. […] The absorbance is read at 450 nm on a Labsystems Multiskan RC ELISA plate reader (Helsinki, Finland).
In situ IFN-γ ELISA data is then converted to secretory units (“SU”) for evaluation. […] The slope (m) and y intercept (b) are calculated using the formula [(100−b)/m]. Because the number of cells needed to secrete 100 pg of IFN-γ in response to peptide will be lower than the cell number required for 100 pg of spontaneous release, the reciprocal values are calculated. […]
Background: An ELISA detects its analyte on a solid surface through an enzyme-linked reagent.

The next experiment addresses HLA-A*3002 (Homo sapiens, UniProt P04439, D101N/D140H/D185E/E176R/F33S/G80R/H175R/K168Q/Q94H/R138E/R41S/V100E). As to the kind of experiment: HLA class I binding assay using purified HLA molecules. The following applies: allele A*3002, listed under supertypes A01 and A24; read-out: Standard Peptide IC50.
The target in another experiment is HLA-A*2902 (Homo sapiens, UniProt P04439, A270S/D101N/D185E/E176V/E277Q/E87Q/F33T/G231S/H175R/I121M/I218V/I322F/K168Q/L300P/L318F/M331R/P208A/P217A/Q86L/T323A/T345S/V100A/V358M). The description is as above.

Turning to “KLPQLCTEV [analog peptide from the E6 protein of HPV-16 beginning at position 18, valine substitution at position 9]”, the “immunogenicity in secretory units (SU)” value in experiment [1] is 0.0 SU.

With `CC[C@H](C)[C@H](NC(=O)[C@@H](N)CCCNC(=N)N)C(=O)N[C@@H](CO)C(=O)NCC(=O)N[C@H](C(=O)N[C@@H](CC(=O)O)C(=O)N[C@@H](CCCNC(=N)N)C(=O)N[C@@H](Cc1ccc(O)cc1)C(=O)N[C@@H](Cc1ccc(O)cc1)C(=O)O)C(C)C`, the pIC50 on HLA-A*3002 was 8.52.

`CC(C)C[C@H](NC(=O)[C@@H]1CCCN1C(=O)[C@@H](NC(=O)[C@@H](NC(=O)[C@H](C)NC(=O)[C@@H](NC(=O)[C@@H](N)Cc1ccc(O)cc1)[C@@H](C)O)C(C)C)C(C)C)C(=O)N[C@H](C(=O)N[C@@H](Cc1ccc(O)cc1)C(=O)O)C(C)C` had a pIC50 on HLA-A*2902 of 8.30.
